Measured values taken from publication PMC4309955 (Scientific Reports, 2015).

What was measured:
[1] = target: T1, human AT1R (angiotensin II type 1 receptor) (Homo sapiens, UniProt P30556); assay: inhibition of AngII-induced beta-arrestin activation, cell impedance; format: cell-based
[2] = target: T1, human AT1R (angiotensin II type 1 receptor); assay: inhibition of AngII-induced G protein activation, cell impedance; format: cell-based

SMILES: CCCc1nc2c(C)cc(-c3nc4ccccc4n3C)cc2n1Cc1ccc(-c2ccccc2C(=O)O)cc1 [Telmisartan]
- IC50 [1]: 6 pM
- IC50 [2]: 2 pM
